Results as given in paper PMC3625376 (Journal of the American Chemical Society, 2013).

Target: insulin receptor (Homo sapiens, UniProt P06213)
Assay: insulin receptor-binding assay
Details: Table 1

For “[Asp^B10, Lys^B28, Pro^B29]-insulin [DKP insulin (biosynthetic)]”, the Kd was 0.029 ± 0.005 nM.
